Inhibition data for 94 compounds are collected here from PubChem BioAssay AID1259374 (The Scripps Research Institute Molecular Screening Center, 2018).

Amino acid sequences for entries named in this document (tags omitted). A change or cut given only in a name is not applied to a line headed by its entry.
UniProt O75030: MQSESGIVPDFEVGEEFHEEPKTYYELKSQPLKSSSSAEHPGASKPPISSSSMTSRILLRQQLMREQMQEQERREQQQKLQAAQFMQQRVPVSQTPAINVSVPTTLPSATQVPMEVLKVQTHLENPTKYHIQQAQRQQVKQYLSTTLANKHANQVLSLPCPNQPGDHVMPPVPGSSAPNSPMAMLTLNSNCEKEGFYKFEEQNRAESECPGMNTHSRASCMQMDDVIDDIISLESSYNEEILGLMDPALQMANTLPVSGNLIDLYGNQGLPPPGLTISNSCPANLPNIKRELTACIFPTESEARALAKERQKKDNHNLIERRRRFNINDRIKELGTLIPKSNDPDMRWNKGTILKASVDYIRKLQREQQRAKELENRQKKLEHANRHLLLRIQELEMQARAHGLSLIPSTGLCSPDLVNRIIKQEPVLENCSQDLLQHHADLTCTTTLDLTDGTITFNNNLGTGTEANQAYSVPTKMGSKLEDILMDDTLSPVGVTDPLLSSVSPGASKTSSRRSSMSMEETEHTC

By inhibition is commonly meant the relative decrease from the control value, in per cent.

The list shows a part of the results, in another mix than the full data. Calls of active or inactive are those of the source. Rule as the data show it: active = inhibition above about 50%; inactive = the rest.

In this test the target is Microphthalmia-associated transcription factor (Homo sapiens) (UniProt O75030). Briefly: MITF inhibitors, primary screen, biochemical, AlphaScreen, human (AID 1259374).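 Also: 0% = vehicle wells with protein.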 As to conditions: AlphaScreen MITF homodimerization, bead proximity signal; at 2.6 µM; active compounds read high. Background: Alpha assays give light when donor and acceptor beads are brought close together.
With `Cc1cc(NP(=O)(Oc2ccccc2)Oc2ccccc2)no1`, the inhibition was inactive: -11.5%. The result for `CCN(CC)C(=O)NP(=O)(Oc1ccccc1)Oc1ccccc1` reads inactive: 7.81%; that for `Nc1c([N+](=O)[O-])cc([N+](=O)[O-])c(Nc2ccc(S(N)(=O)=O)cc2)c1[N+](=O)[O-]`, inactive: -2.91%.

For `O=C(Cc1ccc(F)cc1)N(Cc1cccnc1)C1CCN(CCc2ccccn2)CC1`, the inhibition is inactive: 2.7%.

For the compound `O=C(COC(=O)c1ccc([N+](=O)[O-])cc1[N+](=O)[O-])c1ccc([N+](=O)[O-])cc1`, the inhibition was inactive: -1.27%.

Take `Cc1cc(NP(=O)(/C=C(\Cl)c2ccccc2)/C=C(\Cl)c2ccccc2)n[nH]1`: the inhibition is inactive: 8.15%. On to `COc1cc(NC(=O)COC(=O)C(O)(c2ccccc2)c2ccccc2)cc(OC)c1`, for which the inhibition is inactive: 4.06%. For `COc1ccc(CCN2CCC(N(Cc3cccnc3)C(=O)NC(C)C)CC2)cc1` the value was inactive: 13.8%; for `O=C(Nc1ccncc1[N+](=O)[O-])c1ccc([N+](=O)[O-])cc1[N+](=O)[O-]`, inactive: 3.32%. `COc1ccc(NC(=O)c2cc([N+](=O)[O-])cc([N+](=O)[O-])c2)c([N+](=O)[O-])c1`: the inhibition was inactive: 10.2%. The result for `CC(C)OP(=O)(OC(C)C)C(=O)c1ccccc1Cl` reads inactive: 6.78%; that for `CCCCOP(=S)(CC(=O)N(CC)CC)OCCCC`, inactive: 1.61%. Regarding `CC(C)COP(=O)(Nc1ccc(Br)cc1)OCC(C)C`, the inhibition was inactive: -4.38%. Turning to `CCN1C(=O)N(c2ccccc2)P(=S)(OC)c2cc3c(cc21)OCCO3` (centres undefined), the inhibition is inactive: 13.4%.

As for `O=C(CF)NC(Sc1ccccc1)C(Cl)(Cl)Cl` (centres undefined), the inhibition was inactive: 2.99%. On to `Cc1cc(SC(NC=O)C(Cl)(Cl)Cl)ncn1` (centres undefined), for which the inhibition is inactive: -1.65%.

Take `Cc1sc2nc3n(c(=O)c2c1C)CC(CI)S3` (centres undefined): the inhibition is inactive: -1.7%. On to `O=C(Cc1ccc(F)cc1)N(Cc1ccco1)C1CCN(CCc2cccs2)CC1`, for which the inhibition is inactive: -4.37%. For the compound `CC(C)OP(=O)(Nc1nc2ccccc2[nH]1)OC(C)C`, the inhibition is inactive: 5.65%.

On to `O=[N+]([O-])c1ccc(-c2nnc(SCCCl)o2)cc1`, for which the inhibition was inactive: -9.2%. As to `CC(C)(C)C(=O)CSc1nc2ccccc2[nH]1`, the inhibition was inactive: 1.34%. As to `O=[N+]([O-])c1cccc(Nc2ccc([N+](=O)[O-])cc2[N+](=O)[O-])c1`, the inhibition was inactive: 26.5%. For `CCCOc1ccc(S(=O)(=O)N(CCCl)CCCl)cc1`, the inhibition was inactive: 2.76%. For `CCOP(=S)(OCC)SCC(=O)NC(C)C(=O)O` (centres undefined) the value was inactive: -16.2%; for `Nc1nonc1OCCOc1nonc1N`, inactive: 13.6%; for `O=C(NNC(=O)c1ccncc1)NP1Oc2ccccc2O1`, inactive: 0.85%. With `O=[N+]([O-])c1ccc2no[n+]([O-])c2c1`, the inhibition is inactive: -8.28%. For the compound `O=[N+]([O-])c1cc([N+](=O)[O-])c(Nc2ccccc2)c([N+](=O)[O-])n1`, the inhibition was inactive: 1.89%. Take `CN(C)CCCN(C)Cc1cc2ccccc2o1`: the inhibition was inactive: 2.03%.

Regarding `COC(=O)N(c1ccc(OC)cc1)P1(=S)OCC(C)O1` (centres undefined), the inhibition was inactive: -4.1%. The result for `CC(C)NC(=O)NP(=O)(Oc1ccccc1)Oc1ccccc1` reads inactive: 8.57%; that for `CCN(CCCl)c1ccc(C=C(C#N)C#N)c(C)c1`, inactive: -5.67%; that for `COP1(=S)N=C2c3ccccc3CN2c2cc(N(C)C)ccc21` (centres undefined), inactive: 17.9%. With `O=[N+]([O-])c1ccc(/C=C/C=N/Nc2ccc([N+](=O)[O-])cc2[N+](=O)[O-])cc1`, the inhibition is inactive: -13.1%.

For the compound `CC(C)OP(=O)(NC(C)(C)C)C(Cl)Cl` (centres undefined), the inhibition was inactive: 0.2%. For `CC(C)OP(=O)(OC(C)C)C(=O)c1ccc(F)cc1`, the inhibition was inactive: 4.12%. In the case of `O=[N+]([O-])c1cc([N+](=O)[O-])c2[nH]ncc2c1`, the inhibition was inactive: 9.22%. With `CCOP(=O)(OCC)C(=O)c1ccc(OC)cc1`, the inhibition is inactive: 8.63%.

Consider `O=C(Cn1cnc([N+](=O)[O-])n1)NCCO[N+](=O)[O-]`, for which the inhibition is inactive: -10.8%. For `O=C(c1cccnc1)N(Cc1ccco1)C1CCN(CCc2ccc(Cl)cc2)CC1`, the inhibition is inactive: 1.97%. With `O=P1(Nc2nc(-c3ccccc3)cs2)C=C(c2ccccc2)OC(c2ccccc2)=C1`, the inhibition was inactive: 39.9%. Turning to `CCCOP(=O)(OCCC)O/C(C)=C/SC#N`, the inhibition was inactive: 13.3%. The result for `ICC1CN=C(Nc2ncccn2)S1` (centres undefined) reads inactive: -16.7%; that for `CC(=O)N(Cc1cccnc1)C1CCN(CCc2ccccn2)CC1`, inactive: 1.36%. Consider `O=[N+]([O-])c1ccc(N/N=C/c2cc3c(cc2[N+](=O)[O-])OCO3)c([N+](=O)[O-])c1`, for which the inhibition was inactive: -5.81%. On to `O=C(c1cccnc1)N(Cc1ccco1)C1CCN(CCc2cccs2)CC1`, for which the inhibition is inactive: -0.19%.

In the case of `O=C(Oc1ccc([N+](=O)[O-])cc1[N+](=O)[O-])c1ccc(Cl)cc1[N+](=O)[O-]`, the inhibition is inactive: 6.9%. Turning to `OP1(c2ccccc2)=NC(c2ccccc2)=NC(C(Cl)(Cl)Cl)=N1` (centres undefined), the inhibition is inactive: -6.08%. `CCOP(=S)(OCC)C1(C#N)CCCC1`: the inhibition is inactive: 14.5%. With `CCOP(=O)(OCC)SCC(=O)NCC(=O)O`, the inhibition is inactive: 18.4%. On to `CC(C)COP(=O)(Nc1cccc(F)c1)OCC(C)C`, for which the inhibition was inactive: -1.16%. Turning to `CC1CN(c2ccc([N+](=O)[O-])cc2[N+](=O)[O-])CCN1c1ccc([N+](=O)[O-])cc1[N+](=O)[O-]` (centres undefined), the inhibition was inactive: 11.7%. Turning to `O=C(Nc1nnc(-c2cccc([N+](=O)[O-])c2)s1)c1ccc([N+](=O)[O-])cc1[N+](=O)[O-]`, the inhibition is inactive: -6.99%. Regarding `CCOP(=S)(OCC)SCC(=O)NC(C)C(=O)NC` (centres undefined), the inhibition is inactive: -12.5%.

`COc1ccc(C)cc1NC(=O)N(Cc1ccco1)C1CCN(CCc2ccccn2)CC1`: the inhibition is inactive: 15.9%.

`Cc1cc(=O)[nH]c(N[N+](=O)[O-])n1`: the inhibition was inactive: -4.69%. As for `CN(C)P1(=O)Nc2ccccc2S1` (centres undefined), the inhibition is inactive: 13.4%.

In the case of `COc1ccc(CCN2CCC(N(Cc3cccnc3)C(C)=O)CC2)cc1`, the inhibition was inactive: -19.4%. Turning to `COP(=O)(OC)C(NC(=O)c1ccc(C)cc1)=C(Cl)Cl`, the inhibition was inactive: 11.2%.

For `Cc1cccc(NP(=O)(c2ccccc2)c2ccccc2)n1`, the inhibition is inactive: -7.53%. In the case of `O=[N+]([O-])c1ccc(C(O)C(CO)Nc2ccc([N+](=O)[O-])cc2[N+](=O)[O-])cc1` (centres undefined), the inhibition is inactive: 4.58%. For `O=C(COC(=O)C(O)(c1ccccc1)c1ccccc1)NCC(F)(F)F` the value was inactive: 11.1%; for `BrCC1CN=C(Nc2ccccc2Br)S1` (centres undefined), inactive: 17.9%.

As to `CC(C)OP(=O)(OC(C)C)C(=O)c1ccccc1`, the inhibition is inactive: -16.4%. Consider `c1ccc2nc(-c3nc4ccccc4[nH]3)ccc2c1`, for which the inhibition is inactive: 0.41%.

For the compound `O=C(N/N=C\c1ccc([N+](=O)[O-])cc1)c1cc([N+](=O)[O-])cc([N+](=O)[O-])c1O`, the inhibition was inactive: 7.99%. For `CCOC(=O)C(C(=O)OCC)C(O)c1c([N+](=O)[O-])cc([N+](=O)[O-])cc1[N+](=O)[O-]` (centres undefined) the value was inactive: 3.52%.

Turning to `Cc1ccc(NCCc2c([N+](=O)[O-])cc([N+](=O)[O-])cc2[N+](=O)[O-])cc1`, the inhibition was inactive: 12.9%. For `O=C(Nc1cccc([N+](=O)[O-])c1)c1ccc([N+](=O)[O-])cc1[N+](=O)[O-]` the value was inactive: -7.89%. For `O=C(c1cccnc1)N(Cc1cccnc1)C1CCN(CCc2cccs2)CC1` the value was inactive: 9.87%. `CCC(C(=O)OC1CN2CCC1CC2)c1ccccc1` (centres undefined): the inhibition is inactive: -2.52%. For the compound `CCOP(=O)(Nc1cccc2ccccc12)OCC`, the inhibition was inactive: 9.34%. On to `Cc1cc(NC(=O)NP(=O)(O)O)n(-c2ccccc2)n1`, for which the inhibition was inactive: 28.4%. Take `CCOP1(=O)N=C(c2ccc(Br)cc2)NC(=O)N1` (centres undefined): the inhibition was inactive: -4.13%. Consider `CN(C(=O)Cc1ccc(Cl)c(Cl)c1)[C@@H]1CC[C@]2(CCCO2)C[C@H]1N1CCCC1`, for which the inhibition is inactive: 12.5%. Consider `COc1cc(-n2cnnn2)ccc1-n1cnnn1`, for which the inhibition is inactive: 4.15%. Consider `BrCC1CN=C(Nc2ccccc2)S1` (centres undefined), for which the inhibition is inactive: -3.74%. `CC(C)OP(=O)(OC(C)C)C(=O)c1ccco1`: the inhibition is active: 70.4%. As for `Cc1cccc(OCC(=O)OC2CN3CCC2CC3)c1` (centres undefined), the inhibition is inactive: 14.3%. `Cc1cc(Br)c(Nc2c([N+](=O)[O-])cc([N+](=O)[O-])c3nonc23)cc1[N+](=O)[O-]`: the inhibition was inactive: -6.27%. Take `COP(=O)(Nc1ccc(C)cc1)OC`: the inhibition was inactive: -2.81%. For `Cc1ncc(-c2ccccc2)c2ccccc12`, the inhibition was inactive: -5.83%.

Consider `NC(=O)Nc1ccc([As](=O)(O)O)cc1`, for which the inhibition was inactive: 16.6%.

With `O=C(COC(=O)C(O)(c1ccccc1)c1ccccc1)NC(=O)NCc1ccccc1`, the inhibition is inactive: 2.65%. For `O=[N+]([O-])c1ccc(N/N=C/c2ccc(Cl)c([N+](=O)[O-])c2)c([N+](=O)[O-])c1`, the inhibition was inactive: -14.9%. In the case of `Cc1ccc(NC2=NCC(CBr)S2)cc1` (centres undefined), the inhibition was inactive: -8.88%. `NC(=O)c1nsnc1NCCCl`: the inhibition was inactive: -2.35%. As to `CC(=O)c1cccc(NC(=O)N(Cc2ccco2)C2CCN(CCc3ccccn3)CC2)c1`, the inhibition was inactive: -17.1%. As for `O=C(Oc1ccc([N+](=O)[O-])cc1[N+](=O)[O-])c1cc([N+](=O)[O-])cc([N+](=O)[O-])c1`, the inhibition is inactive: -2.15%. On to `O=[N+]([O-])c1cccc(P(=O)(Nc2ccccn2)c2cccc([N+](=O)[O-])c2)c1`, for which the inhibition was inactive: -3.14%. Regarding `CC1(C)Nc2ccccc2OP1(=O)c1ccccc1` (centres undefined), the inhibition was inactive: 3.39%. As to `Cc1ccnc(NP2(=O)C=C(c3ccccc3)OC(c3ccccc3)=C2)c1`, the inhibition was inactive: 10.4%. For the compound `CN(C(=O)Cc1ccccc1)[C@@H]1CC[C@]2(CCCO2)C[C@H]1N1CCCC1`, the inhibition is inactive: 23.6%. Regarding `CCOC(=O)NC(Sc1cc(C)ncn1)C(Cl)(Cl)Cl` (centres undefined), the inhibition is inactive: 5.11%.
